# Binding of CDR-mutated scFvs to a peptide of the spike HR2 region

Source: Li et al. 2023 (doi:10.1038/s41467-023-39022-2), MIT Lincoln Laboratory and A-Alpha Bio; data file from the FLAb repository.

All variants were tested on one target, the spike HR2 peptide PDVDLGDISGINAS (SARS-CoV-2).

Each scFv is VH, a (GGGGS)3 linker, VL, as in the parent Ab-14, and differs from it in the CDRs of the light chain only.
VH: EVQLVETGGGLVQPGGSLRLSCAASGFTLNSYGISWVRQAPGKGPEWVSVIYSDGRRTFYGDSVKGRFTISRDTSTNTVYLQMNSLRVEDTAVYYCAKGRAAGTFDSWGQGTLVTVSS
VL: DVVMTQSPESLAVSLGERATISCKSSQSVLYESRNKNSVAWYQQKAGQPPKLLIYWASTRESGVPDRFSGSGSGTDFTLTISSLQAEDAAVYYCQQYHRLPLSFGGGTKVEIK

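The starting antibody came from a phage panning campaign against this peptide. These sequences belong to a second round, designed from the earlier measurements on random variants of the parent. Their group label is 14L_En_HC (En: ensemble of fine-tuned language models; HC: hill climbing; a sequence that several methods proposed may carry one label only). The assay is AlphaSeq: two haploid yeast populations carry antibody and antigen on their surface. Pairs that bind mate more often; barcode pairs of the diploids are counted by sequencing. Read counts were normalised to the haploid input and turned into Kd by a linear fit to BCL2-family pairs of known affinity, for each replicate. There are six technical replicates.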

The parent's light chain CDRs are KSSQSVLYESRNKNSVA, WASTRES, QQYHRLPLS; each variant's own CDRs replace them letter for letter.
The read-out is the apparent dissociation constant on a log10 scale (nM): the lower, the stronger.
The mean shown is taken over the replicates in which the pair was detected.
"n.d." marks a missing value. The strain was present, yet no cells mated with the target were sequenced in that replicate, which points to weak or no binding.
Values of this round are not directly comparable with the first-round values of the same sequences.
Nonspecific signal, from three strains lacking the peptide, appeared in 4% of pairings of all light chain designs, centred on 2.64 (5% of these signals below 1.59); values are not corrected for it. For each scFv, signals with the empty controls are counted beside the result, with their mean in brackets.
The parent sequence was in this pool as ten entries: three were never detected, three once, and four in most replicates, with averages from 0.34 to 2.37.
In the paper, a design with two or fewer of six values counts as a poor binder.

CDR-L1	CDR-L2	CDR-L3	log10 Kd (nM) by replicate	mean, log10 nM	signal with controls
KLSSFHNLESINKSNVA	EMVTREN	QQYDRLPLS	n.d. / n.d. / 2.75 / 2.20 / n.d. / 3.18	2.71	1/18 (3.69)
LISGVWDLGSRNYNSVA	QTSTRES	QQYDRLPLS	1.02 / 0.52 / 0.48 / 0.54 / 0.42 / 0.67	0.61	3/18 (2.50)
KLRQVTGYESYLKNSVA	QTSTRAE	QDYHRLPLS	0.96 / 1.02 / 1.03 / 1.03 / 0.86 / 0.97	0.98	1/18 (2.54)
KLPQATMQESVSKNNVA	ELSTRGS	QQYHRLPLS	0.31 / 0.30 / 0.55 / 2.82 / 1.38 / 0.60	0.99	0/18
TISQTAQQESHNKNSVA	DLNVRGS	QQYDRLPLS	n.d. / 1.99 / 1.44 / 1.99 / 2.80 / 2.02	2.05	2/18 (2.62)
KISMTYRYESQNKNSIA	EMSRREN	QQYHRLPLS	n.d. / n.d. / n.d. / 2.80 / n.d. / n.d.	2.80	0/18
MLSDTVMQGSYYRNSVA	QESTRAD	QQYHHLPLS	0.79 / 0.74 / 0.47 / 0.49 / 0.59 / 0.59	0.61	1/18 (2.80)
IISQSVLGEYHNKNSVA	QTSERGS	QQYDRLPLS	0.68 / 0.92 / 0.61 / 0.24 / 0.53 / 0.72	0.62	0/18
HIPQMVAYGSCNKNNVA	QVSTREE	QQYHRLPLS	1.93 / 1.27 / 1.73 / 1.65 / 2.60 / 1.72	1.81	0/18
MMSYGWLYGSRNKRNVA	DRETRMS	QQYDRLPLS	0.27 / 0.28 / 0.21 / 0.25 / 0.08 / 0.32	0.23	1/18 (2.21)
TLVQSVMSGSRTKNSVA	NAEMRYD	QHYHRLPLS	0.64 / 0.31 / 0.43 / 0.40 / 0.56 / 0.44	0.46	1/18 (3.11)
KLGQMTAIESRALNSVA	QMDTRES	QQYHRLPLS	n.d. / 1.07 / n.d. / 1.51 / n.d. / n.d.	1.29	0/18
KLREVQHLETKQRNNVA	DNDTRES	QDYYRLPLS	n.d. / n.d. / n.d. / n.d. / n.d. / n.d.	n.d.	0/18
KLSLFYRVETMQKNSVA	DNSTRES	QDYDRLPLS	n.d. / 2.89 / n.d. / n.d. / n.d. / 3.50	3.20	0/18
TISQSADQESHNKNSVA	DLSVRGS	QQYHRLPLS	0.90 / 0.86 / 0.59 / 0.92 / 0.99 / 0.98	0.87	0/18
MFSQLTYTGSRARNAVA	QAETREN	QQYHHLPLI	0.86 / 1.80 / 0.82 / 0.32 / 0.53 / 0.87	0.87	0/18
IISQSVLGGYHNKNSVA	QTSERGS	QQYDRLPLS	0.84 / 0.63 / 0.61 / 0.39 / 0.50 / 0.41	0.56	4/18 (2.65)
KLGAVTEYEMRNKNSVA	QMTTRES	QQYHRLPLS	-0.06 / -0.01 / 0.06 / -0.74 / -0.09 / -0.29	-0.19	0/18
MISDLTMYGSRNKNSVA	DLSARGS	QQYHRLPLS	0.14 / 0.19 / 0.17 / 0.22 / 0.23 / 0.36	0.22	3/18 (2.60)
IFSQSVMMGNLTRNSVA	QASTRFN	QQYHRLPLI	1.95 / n.d. / 2.09 / n.d. / 2.15 / 3.84	2.51	0/18
SLMQVGGYESNEKNSIA	DLRTRES	QQYHRLPLS	0.97 / 0.64 / 0.83 / 1.28 / 0.82 / 0.96	0.92	1/18 (2.42)
TISNSAQQESHNKNSVA	DLSVRGS	QQYDRLPLS	1.23 / 1.86 / n.d. / 1.68 / 4.30 / n.d.	2.27	0/18
MFSQSVMYGSFMRNSVA	QTSTRES	QQYDRMPLS	0.85 / 0.67 / 1.73 / 1.85 / 1.26 / 0.90	1.21	1/18 (2.31)
KLIQMTGIESHNKNSLA	DANRRES	QQYHRLPLS	0.64 / 0.83 / 0.68 / 0.55 / 0.51 / 0.64	0.64	3/18 (3.98)
KLSMSVRMETFVKDNVA	ENSTREA	QDYHRLPLS	n.d. / n.d. / n.d. / n.d. / 2.26 / n.d.	2.26	0/18
TISQSTQQESHNKNSVA	DLSVRGS	QQYHRLPLS	0.19 / 0.18 / -0.24 / 0.12 / 0.17 / 0.23	0.11	1/18 (2.66)
KLSMSYRFETEEKNSIA	ELVTRMK	QQYHRLPLS	1.61 / 0.76 / 1.15 / 0.70 / 0.70 / 1.11	1.00	0/18
ALSQSMDMTSRNVNSVA	DLTTREN	QQYHRLPLS	0.22 / 0.24 / 0.12 / 0.00 / -0.04 / 0.17	0.12	1/18 (1.98)
KLGGVTEYEMKNKNSVA	QMTTRES	QQYHRLPLS	-0.12 / 0.03 / -0.16 / -0.32 / -0.02 / -0.10	-0.11	1/18 (2.30)
KIYEMTGYQSRNADSIA	DNSTRGR	QQYHRLPLS	1.31 / 1.32 / 1.62 / 1.22 / 1.45 / 1.43	1.39	1/18 (2.31)
TLTQVQGMEMHNKDNVA	DLSTRGN	QQYDRLPLS	0.97 / 0.99 / 1.13 / 0.91 / 0.76 / 0.77	0.92	3/18 (2.10)
MMSQMFEGLSTSKNPVA	QVSTREE	QQYDRLPLS	1.83 / 1.84 / 0.87 / 2.40 / 1.22 / n.d.	1.63	0/18
TISDLMHSESRNVNNVA	DLVKREK	QQYHRLPLS	0.52 / 0.63 / -0.02 / 0.23 / 0.13 / 0.71	0.37	2/18 (2.35)
ILSQSVLMGMHLKNSVA	QASTRFD	QQYHRLPLM	0.82 / 0.52 / 0.61 / 0.64 / 1.26 / 0.65	0.75	0/18
TIAQSMLYLNNLKNSIA	QAETRES	QQYHRLPIS	0.63 / 1.01 / 0.87 / 0.82 / 0.88 / 1.25	0.91	2/18 (2.46)
MISQSFLIGSRAKNSVA	QTSTREN	QQYDRLPLS	0.20 / -0.19 / -0.35 / -0.26 / -0.02 / 0.43	-0.03	1/18 (1.16)
QLLMATMTETYNRNSVA	NAETRED	QSYHRLPLS	n.d. / n.d. / n.d. / n.d. / n.d. / n.d.	n.d.	1/18 (2.28)
KLGDMVHTLSRDKNSIA	DMRTRES	QQYYRLPLS	-0.13 / 0.08 / -0.08 / -0.31 / -0.18 / 0.05	-0.09	0/18
KISQMYRYEQQNSSSIA	EVSTRLN	QSYHRLPLS	n.d. / 2.71 / 3.14 / n.d. / n.d. / 2.90	2.92	3/18 (2.61)

Extract of 4 entries:

CDR-L1	CDR-L2	CDR-L3	log10 Kd (nM) by replicate	mean, log10 nM	signal with controls
KLPQATMQESVSKNNVA	ELSTRGS	QQYHRLPLS	0.31 / 0.30 / 0.55 / 2.82 / 1.38 / 0.60	0.99	0/18
MMSQMFEGLSTSKNPVA	QVSTREE	QQYDRLPLS	1.83 / 1.84 / 0.87 / 2.40 / 1.22 / n.d.	1.63	0/18
MISQSFLIGSRAKNSVA	QTSTREN	QQYDRLPLS	0.20 / -0.19 / -0.35 / -0.26 / -0.02 / 0.43	-0.03	1/18 (1.16)
TISQSADQESHNKNSVA	DLSVRGS	QQYHRLPLS	0.90 / 0.86 / 0.59 / 0.92 / 0.99 / 0.98	0.87	0/18